UUG fidelity = modulators of yeast start codon fidelity, primary screen, whole organism, S. cerevisiae, single point, plate reader; S. cerevisiae UUG-firefly luciferase reporter, luminescence/redox ratio; activity score, % at 18.7 µM; actives 0.13% (n = 350,000); AID 602363, 2012;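 active = replicate mean at a twofold rise or more, about +100% in these data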;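 also: firefly luciferase made from a UUG start codon reports start codon fidelity; reporter light over untreated wells divided by growth signal over untreated wells; some hits fall short of that in this replicate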
ARNT-TACC3 inh = disruptors of ARNT/TACC3 protein interaction, primary screen, biochemical, AlphaScreen, single concentration; Transforming acidic coiled-coil-containing protein 3 (Homo sapiens), Q9Y6A5; AlphaScreen His-ARNT PAS-B/GST-TACC3 binding, luminescence; TACC3 fragment carries E629A point mutation; inhibition, % at 9.99 µM; hit rate 0.66% among 390,000; AID 623870, 2012;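 active = mean inhibition of replicates at least 50% and at least half of replicates each reaching 50%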
E-selectin induc = E-selectin induction in HUVECs, primary screen, imaging, HUVEC, immunofluorescence imaging, single point; P16581; normalized: neutral wells 0, TNF-alpha wells 100; activation, % at 7.58 µM; hit rate 0.37% among 260,000; AID 686992, 2013;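 active = mean E-selectin-positive cell signal at least 10% of the positive control, reached in at least 60% of replicates, without over 20% cell loss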
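Test system: HUVEC | Signal: Immunofluorescence imaging | Read-out: Percent E-selectin-positive cells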
S100A4 MyoIIA = inhibitors of S100A4-myosin IIA peptide binding, primary screen, biochemical, fluorescence polarization, TAMRA-MyoIIA peptide. inhibition, % at 10.7 µM. Protein S100-A4 (Homo sapiens), P26447. hit rate 0.14% among 360,000;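 active = mean inhibition of at least 70% across replicates, with every replicate also reaching that level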
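Assay system: human S100A4 monomer with TAMRA-labelled myosin IIA peptide / Buffer or medium: Calcium-containing HEPES buffer, pH 7.2 / Reagent: TAMRA-labelled myosin IIA heavy-chain peptide probe, 5 nM / Compound: one dose per compound / Timing: polarization read 5 min after assay mix addition, stable 5–60 min / Benchmarks: neutral control DMSO, positive control TFP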
ERAP1 HTS inh = human ERAP1 aminopeptidase inhibitors, primary screen, biochemical, single point, plate reader; recombinant ERAP1, Leu-AMC fluorescence, 60 min; hit rate 0.15% among 340,000; inhibition, % at 10.7 µM; Endoplasmic reticulum aminopeptidase 1 (Homo sapiens), Q9NZ08;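 active = mean replicate inhibition of at least 30%, or all replicates individually reaching that 30% level; inactive = mean below 30% and not every replicate reaching it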
MLL AF4-AF9 inh = inhibitors of AF4 peptide binding to AF9, primary screen, biochemical, AlphaScreen, biotin-AF4 peptide, FLAG-AF9, single point | Protein AF-9 (Homo sapiens), P42568 | inhibition, % at 10 µM | hit rate 0.47% among 350,000 | AID 651704, 2012;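 active = every replicate reaching a set inhibition limit, whatever the replicate mean, cut at about 25% in these data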
Numbers stand for hits; i = inactive; nt = no result given. Shown are actives, neighbours in structure and some others; about 1.3% of the full set was active somewhere.

By UniProt entry, the sequences of proteins in these tests, tags left out.
Protein AF-9 (Homo sapiens), P42568, UniProt P42568, whole entry, looked up: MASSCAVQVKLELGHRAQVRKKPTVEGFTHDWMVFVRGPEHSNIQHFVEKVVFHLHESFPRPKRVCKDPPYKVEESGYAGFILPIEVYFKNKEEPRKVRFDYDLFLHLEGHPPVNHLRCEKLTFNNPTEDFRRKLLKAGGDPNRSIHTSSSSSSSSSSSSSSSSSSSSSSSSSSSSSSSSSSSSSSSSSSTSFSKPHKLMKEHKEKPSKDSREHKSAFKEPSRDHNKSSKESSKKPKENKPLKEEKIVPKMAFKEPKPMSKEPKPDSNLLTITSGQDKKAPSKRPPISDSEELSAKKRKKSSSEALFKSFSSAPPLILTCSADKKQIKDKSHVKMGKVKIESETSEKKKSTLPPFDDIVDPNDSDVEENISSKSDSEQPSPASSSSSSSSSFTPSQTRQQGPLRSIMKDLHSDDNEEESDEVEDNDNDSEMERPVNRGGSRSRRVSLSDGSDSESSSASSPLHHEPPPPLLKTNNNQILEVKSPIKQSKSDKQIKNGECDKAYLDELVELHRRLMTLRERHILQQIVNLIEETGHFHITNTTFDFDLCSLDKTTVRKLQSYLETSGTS

SMILES | UUG fidelity | ARNT-TACC3 inh | E-selectin induc | S100A4 MyoIIA | ERAP1 HTS inh | MLL AF4-AF9 inh
COc1ccc(CN(C)C[C@@H]2Oc3ccc(NC(=O)Nc4ccc5c(c4)OCO5)cc3CC(=O)N([C@@H](C)CO)C[C@H]2C)cc1 | i | i | i | i | i | 27
COc1ccc(CN(C)C[C@@H]2Oc3ccc(NC(=O)Nc4ccc(F)cc4)cc3CC(=O)N([C@@H](C)CO)C[C@@H]2C)cc1 | i | i | 62 | i | i | i
COc1ccc(S(=O)(=O)N(C)C[C@H]2Oc3ccc(NC(=O)Nc4ccc5c(c4)OCO5)cc3CC(=O)N([C@H](C)CO)C[C@@H]2C)cc1 | i | i | 429 | i | i | i
C[C@@H]1CN([C@H](C)CO)C(=O)Cc2cc(NC(=O)CCN3CCOCC3)ccc2O[C@H]1CN(C)C(=O)NC1CCCCC1 | i | i | i | i | i | i
CC(C(=O)NCCN1CCOCC1)c1ccc([N+](=O)[O-])cc1 (stereo not drawn) | nt | i | nt | i | i | i
O=C1C[C@@](C(=O)NCCN2CCOCC2)(c2ccc([N+](=O)[O-])cc2)[C@@H](c2ccc(CO)cc2I)N1CC12CC3CC(CC(C3)C1)C2 | i | i | nt | i | i | 27
Cc1ccc(S(=O)(=O)Nc2ccc3c(c2)C(=O)N([C@H](C)CO)C[C@H](C)[C@@H](CN(C)Cc2ccccc2)OCCCC[C@@H](C)O3)cc1 | i | i | nt | nt | nt | nt
C[C@H](CO)N1C[C@H](C)[C@@H](CN(C)S(=O)(=O)c2cn(C)cn2)Oc2ccc(NC(=O)CCN3CCOCC3)cc2C1=O | i | i | nt | i | i | i
CCOC(=O)C1CCN(S(=O)(=O)c2ccc3c(c2)CC(=O)N3C)CC1 | i | i | nt | i | 101 | i
C[C@H](CO)N1C[C@H](C)[C@@H](CN(C)C)Oc2cc(-c3ccccc3)ccc2S1(=O)=O | i | i | i | i | i | i
COC(=O)/C(=N/Nc1ccccc1)N1CCCc2ccccc21 | i | i | nt | i | i | 37
COC(=O)/C(=N/Nc1ccc(C)cc1)N1CCCc2ccccc21 | nt | i | i | i | i | i
Cc1cc(NC2=CC(=O)C(=O)c3ccccc32)no1 | nt | 37 | i | i | i | i
O=C(CSc1cccc2cccnc12)Nc1ccccc1F | i | 59 | i | i | nt | i
O=C(CSc1n[nH]c(-c2ccccn2)n1)Nc1ccccc1F | i | 54 | i | i | i | i
COc1ccccc1-c1nc(SCC(=O)Nc2ccccc2F)n[nH]1 | i | i | i | i | i | i
O=C(Sc1cccc2cccnc12)c1ccccc1Br | i | 75 | i | i | i | i
O=C(CSc1cccc2cccnc12)OCC(=O)c1ccc(Br)cc1 | i | i | nt | nt | nt | nt
NNC(=O)CSc1cccc2cccnc12 | nt | 48 | i | nt | nt | nt
O=C(Sc1cccc2cccnc12)c1ccc(F)cc1 | nt | nt | nt | i | i | i
Cc1cccc(-c2ccc([C@@H]3[C@H]4CN(C(=O)Cc5ccccn5)CC(=O)N4[C@H]3CO)cc2)c1 | nt | nt | i | i | i | i
O=C(NCc1ccc(F)cc1)[C@@H]1[C@@H](CO)[C@@H]2Cn3c(cccc3=O)[C@@H]2N1C(=O)C1CC1 | nt | i | i | i | i | i
O=C(CSc1cccc2cccnc12)OCC(=O)c1ccccc1 | i | 53 | nt | nt | nt | nt
C/C(=N\Nc1ccc([N+](=O)[O-])cc1[N+](=O)[O-])C(C)C(C)C (stereo not drawn) | nt | i | i | i | i | 26
Cc1ccccc1C(=O)NCC(=O)OCCCOC(=O)CNC(=O)c1ccccc1C | nt | i | i | i | i | i
Cc1cc(C)c(C(=O)COC(=O)CNC(=O)c2ccccc2C)c(C)c1 | nt | i | i | 111 | i | i
COc1ccc(C=Nc2cccnc2N)cc1 | i | 28 | nt | nt | nt | nt
CCOC(=O)/C(=N\Nc1cccc(Cl)c1)Sc1nnc(-c2ccc(OC)cc2)n1C | nt | 46 | nt | nt | nt | nt
C/C=C/c1ccc([C@H]2[C@@H](CO)N(C(=O)CC)[C@H]2CN(C)S(C)(=O)=O)cc1 | i | i | i | nt | nt | nt

Compound activity: PubChem, Broad Institute
